For orientation: EC50 means the concentration that produces a half-maximal response.

Consider one molecule from patent publication US20250257060A1, “OXADIAZOLE COMPOUND, PHARMACEUTICAL COMPOSITION COMPRISING SAME, AND USE THEREOF” (SUZHOU GENHOUSE BIO CO., LTD., priority 2022, published 2025).

The subject of the assay is acetylation level of α-tubulin in HCT116 cells. As to the kind of experiment: Assay on acetylation level of α-tubulin, HCT116 cells. As to conditions: read-out: EC50 (acetylation level of α-tubulin), 6 h.

The structures appear in SMILES notation.

As for `O=S1(=O)c2cc(-c3nnc(C(F)F)o3)ccc2CN1C(c1ccccn1)C(O)c1ccccn1` (single isomer, unassigned) [70i-B-B], the EC50 stood at 927 nM.
